Data on 75 molecules can be found in PubChem BioAssay AID504766 (The Scripps Research Institute Molecular Screening Center, 2011).

Chains of the proteins cited; added tags and fusions are not shown. Residues count along the entry.
UniProt P51843, 207-470 limits assumed: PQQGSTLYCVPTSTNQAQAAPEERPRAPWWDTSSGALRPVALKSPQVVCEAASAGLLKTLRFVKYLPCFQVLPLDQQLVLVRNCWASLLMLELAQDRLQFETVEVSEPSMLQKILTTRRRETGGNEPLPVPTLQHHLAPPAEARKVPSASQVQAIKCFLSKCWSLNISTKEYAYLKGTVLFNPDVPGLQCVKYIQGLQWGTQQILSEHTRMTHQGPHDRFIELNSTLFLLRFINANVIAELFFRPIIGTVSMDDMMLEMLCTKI

The entries are a selection whose mix differs from that of the whole data set. Calls of active or inactive are those of the source.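 How the source made its calls: active means inhibition above the mean over all tested compounds plus 3 SD (cut at about 4.2% in these data); inactive means the rest.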

In this assay the target is Nuclear receptor subfamily 0 group B member 1 (Homo sapiens) (UniProt P51843). As to the kind of experiment: DAX1 (NR0B1) inhibitors, primary screen, cell-based, HEK293, Gal4-DAX1, luciferase luminescence (AID 504766).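 Further: 0% = DAX1-transfected cells with DMSO and 100% = empty-vector control cells with DMSO; inhibition shows as a rise in luminescence from relieved DAX1 repression.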 The note with it: HEK293 Gal4-DAX1 luciferase reporter, at 6.75 µM, stronger effect = higher value. (Reporter assays use an easily measured gene product as a stand-in for the process of interest.)
As to `N#Cc1ccc(C(=O)NCC2(N3CCCCC3)CCCCC2)cc1`, the inhibition is inactive: -0.08%.
In the case of `CC(C)(C)OC(=O)N1CCC(N(C(=O)c2ccccc2)c2ccc(Cl)cc2)CC1` it was inactive: -1.77%; in that of `CN(C)C1(CNC(=O)c2cccc(C#N)c2)CCCCC1`, inactive: 1.74%; in that of `Cc1cc(N(CCCl)CCCl)ccc1C=O`, inactive: -1.19%.
In the case of `CCCN1CCC(Nc2cc(OC)cc(OC)c2)CC1` it was inactive: 2.11%; in that of `c1ccc(CN2CCC(Nc3ccccc3)CC2)cc1`, inactive: 1.71%.
`COc1ccc(C(=O)NCC2(N3CCOCC3)CCCCC2)cc1OC`: the inhibition is inactive: 3.55%.
In the case of `COc1cc(C(=O)NCC2(N3CCOCC3)CCCCC2)cc(OC)c1C` it was inactive: 0.08%; in that of `O=C(NCC1(N2CCOCC2)CCCCC1)c1cc(Br)ccc1Cl`, inactive: 0.24%; in that of `O=C(OC1CN2CCC1CC2)C1c2ccccc2C=Cc2ccccc21` (stereo not given), inactive: 0.85%.
For `CCOC(=O)N1CCC(Nc2ccc(C)cc2)CC1` the value was inactive: -2.54%; for `N/C(=N\O)c1c(N)no[n+]1[O-]`, inactive: 0.32%; for `O=C(O)C1(Nc2ccccc2)CCN(Cc2ccccc2)CC1`, inactive: -0.53%.
For `CC(C)(C)OC(=O)N1CCC(Nc2ccccc2)CC1` the value was inactive: -0.34%; for `CCCOc1ccc(C(=O)NCC2(N(C)C)CCCCC2)cc1`, inactive: 0.8%; for `CN1CCC(Nc2ccc(F)c(Cl)c2)CC1`, inactive: 1.69%.
In the case of `CCOc1ncccc1C(=O)NCC1(N2CCOCC2)CCCCC1`, the inhibition was inactive: 3%.
For `CN1CCC(Nc2ccc(Cl)cc2)CC1` the value was inactive: 1.47%; for `COc1cc(OC)cc(C(=O)NCC2(N3CCOCC3)CCCCC2)c1`, inactive: 1.12%; for `COc1cccc(C(=O)N(c2cc(C)cc(C)c2)C2CCN(C(=O)OC(C)(C)C)CC2)c1`, inactive: 0.6%.
For `CCC(CO)(C(=O)OC1CN2CCC1CC2)c1ccccc1` (stereo not given), the inhibition was inactive: 3.18%.
In the case of `Fc1ccccc1NC1CCN(Cc2ccccc2)CC1` it was inactive: -0.31%; in that of `Cc1ccc(C(=O)NCC2(N3CCCCC3)CCCCC2)o1`, inactive: -0.13%.
In the case of `Cc1ccc(NC2(C#N)CCN(Cc3ccccc3)CC2)cc1` it was inactive: -0.93%.
Regarding `CC(=O)N(c1ccccc1)C1CCNCC1`, the inhibition was inactive: -1.55%.
In the case of `COc1cc(OC)cc(C(=O)NCC2(N3CCCCC3)CCCCC2)c1`, the inhibition was inactive: 0.11%.
For `CN(C)c1ccc(C(=O)NCC2(N3CCCCC3)CCCCC2)cc1` the value was inactive: 0.26%; for `Cn1c(=O)[nH]cc(N(CCCl)CCCl)c1=O`, inactive: -0.6%; for `O=C(NCC1(N2CCCCC2)CCCCC1)c1ccco1`, inactive: 0.2%.
Turning to `CCN1CCC(Nc2cccc(F)c2)CC1`, the inhibition is inactive: -0.24%.
For `Cc1ccccc1NC1(C#N)CCN(Cc2ccccc2)CC1` the value was inactive: 3.33%.
For `COc1ccc(NC2CCN(CCc3ccccc3)CC2)c(OC)c1` the value was inactive: -0.09%.
In the case of `CCOC(=O)N1CCC(Nc2ccc(F)cc2)CC1` it was inactive: -0.01%; in that of `O=P1(N(CCCl)CCCl)SCCCS1`, inactive: -0.09%; in that of `CCCCOc1ccc(C(=O)NCC2(N3CCOCC3)CCCCC2)cc1`, inactive: -1.32%.
`O=C(NCC1(N2CCCCC2)CCCCC1)c1ccc(F)cc1`: the inhibition is inactive: 0.37%.
In the case of `O=C1CCN(Cc2ccccc2)CC1` it was active: 4.32%; in that of `CCOc1ccc(C)cc1CN(CCCl)CCCl`, inactive: -1.46%.
For `CCOC(=O)N1CCC(Nc2cccc(C)c2)CC1` the value was inactive: 0.38%; for `COc1cc(C(=O)NCC2(N(C)C)CCCCC2)ccc1OC(F)F`, inactive: -0.98%; for `Cc1cccc(NC2(C#N)CCN(Cc3ccccc3)CC2)c1`, inactive: -0.23%.
On to `CSc1ccccc1C(=O)NCC1(N2CCCCC2)CCCCC1`, for which the inhibition is active: 5.03%.
For `CC(C)(C)OC(=O)N1CCC(N(C(=O)c2ccccc2)c2ccc(F)cc2)CC1` the value was inactive: 1.11%; for `COc1ccc(C(=O)NCC2(N3CCCCC3)CCCCC2)c(OC)c1OC`, inactive: -0.03%.
In the case of `COc1ccc(C(=O)NCC2(N3CCCCC3)CCCCC2)cc1` it was inactive: 0.43%; in that of `O=C(NCC1(N2CCCCC2)CCCCC1)c1cccs1`, inactive: 0.08%; in that of `O=C(NCC1(N2CCCCC2)CCCCC1)c1ccc(=O)[nH]c1`, inactive: 1.59%.
Consider `COc1ccc(Cl)cc1C(=O)NCC1(N2CCOCC2)CCCCC1`, for which the inhibition was inactive: 0.4%.
Take `O=C(NCC1(N2CCCCC2)CCCCC1)c1ccc(Cl)s1`: the inhibition is inactive: -0.04%.
In the case of `N#CC1(Nc2ccccc2)CCN(Cc2ccccc2)CC1`, the inhibition was inactive: 0.03%.
In the case of `O=C(OC1CN2CCC1CC2)C1c2ccccc2Oc2ccccc21` (stereo not given), the inhibition is inactive: 0.13%.
With `CCOC(=O)N1CCC(Nc2ccc(OC)cc2)CC1`, the inhibition was inactive: -1.78%.
In the case of `Cc1cc(C)cc(N(C(=O)c2ccccc2)C2CCN(C(=O)OC(C)(C)C)CC2)c1` it was inactive: 0.95%; in that of `O=C(NCC1(N2CCCCC2)CCCCC1)c1ccc(Cl)nc1`, inactive: 0.91%.
Consider `O=C(NCC1(N2CCOCC2)CCCCC1)c1cc2ccccc2o1`, for which the inhibition is inactive: -0.43%.
Turning to `O=C(NCC1(N2CCOCC2)CCCCC1)c1cc(F)c(F)cc1Cl`, the inhibition is inactive: -0.95%.
As for `COc1cc(OC)c(C(=O)NCC2(N(C)C)CCCCC2)cc1OC`, the inhibition is inactive: 2.63%.
For `CC(C)c1ccc(NC2CCN(C(=O)OC(C)(C)C)CC2)cc1`, the inhibition is inactive: 0.68%.
In the case of `CN(C)c1cccc(C(=O)NCC2(N3CCCCC3)CCCCC2)c1` it was inactive: 0.87%; in that of `COc1ccc(CN(CCCl)CCCl)cc1Cl`, inactive: 1.01%.
In the case of `CCCOc1ccc(C(=O)NCC2(N(C)C)CCCCC2)cc1OC` it was inactive: 2.67%; in that of `Cc1ccc(C(=O)NCC2(N(C)C)CCCCC2)o1`, inactive: 0.52%; in that of `CN1CCC(Nc2cccc(F)c2)CC1`, inactive: -0.25%.
In the case of `O=C(NCC1(N2CCCCC2)CCCCC1)c1cncc(Br)c1`, the inhibition was inactive: 0.98%.
In the case of `N#CC1(Nc2ccccc2)CCN(CCc2ccccc2)CC1` it was inactive: -0.44%; in that of `CCN1CCC(Nc2ccc(Cl)cc2)CC1`, inactive: 0.2%; in that of `O=C(NCC1(N2CCCCC2)CCCCC1)c1cccc([N+](=O)[O-])c1`, inactive: 1.58%.
For `CSc1ccc(C(=O)NCC2(N3CCOCC3)CCCCC2)cc1`, the inhibition is inactive: 1.22%.
For `O=C(NCC1(N2CCCCC2)CCCCC1)c1ccc(OC(F)F)cc1` the value was inactive: 1.75%; for `COc1cc(C(=O)NCC2(N3CCCCC3)CCCCC2)ccc1OC(F)F`, inactive: 0.34%; for `O=C(NCC1(N2CCOCC2)CCCCC1)c1cc(=O)[nH]c2ccccc12`, inactive: 0.24%.
For `CN1CCN(CCOC(=O)C(O)(c2ccccc2)c2ccccc2)CC1` the value was inactive: -0.25%.
In the case of `CC(C)c1ccc(C(=O)NCC2(N3CCOCC3)CCCCC2)cc1`, the inhibition was inactive: 1.55%.
As to `COc1ccc(NC2CCN(C(=O)OC(C)(C)C)CC2)cc1`, the inhibition was inactive: 2.95%.
For `O=C(NCC1(N2CCCCC2)CCCCC1)c1cccc(C(F)(F)F)c1`, the inhibition was inactive: 1.29%.

As usually defined, the inhibition is the relative decrease from the control value, in per cent.
